Test system: human stem-cell derived cardiomyocytes

Herceptin: monoclonal antibody trastuzumab (Herceptin) that targets the human ERBB2 receptor
effect on ATP levels with addition of Neuregulin ligand: effects of Herceptin at both doxorubicin concentrations tested
